The text below walks through data of ChEMBL document CHEMBL1135544, “Design, synthesis, and biological activity of hybrid compounds between uramustine and DNA minor groove binder distamycin A” (J Med Chem, 2002).

Broadly, the IC50 is the concentration needed to halve the response being measured. A lower IC50 goes with higher potency.

This test concerns K562. Nature of the test: In vitro antitumor activity against human chronic myeloid leukemia K562 cell line.

Regarding `O=C(O)Cn1cc(N(CCCl)CCCl)c(=O)[nH]c1=O`, the half-maximal inhibitory concentration (IC50) was determined as 33.5 µM.

On to `O=C(O)CCn1cc(N(CCCl)CCCl)c(=O)[nH]c1=O`, for which the IC50 was greater than 100 µM.
